Earlier results, collected in patent US7235142B2, “Non-toxic corrosion-protection rinses and seals based on cobalt” (University of Dayton, priority 2002, dated 2007).

Details: pH 7

Question: Which “Solubility in Water” value does the source give for F[Si-2](F)(F)(F)(F)F.[Sr+2] [Strontium hexafluorosilicate] here?
Answer: 1.3 × 10^−1^ mole/L
